Measured values as given in article PMC7796304, “Nephrotoxic Potential of Putative 3,5-Dichloroaniline (3,5-DCA) Metabolites and Biotransformation of 3,5-DCA in Isolated Kidney Cells from Fischer 344 Rats” (International Journal of Molecular Sciences, 2020).

System: isolated kidney cells (IKC)
Assay: Pretreatment with antioxidants or enzyme inhibitors before 3,5-DCNB, LDH release in IKC
Conditions: 1.0 mM 3,5-DCNB, 60 min, pretreatment concentrations per Table 4

In the case of `Cn1cc[nH]c1=S` [methimazole], the “effect of pretreatment on 3,5-DCNB-induced cytotoxicity (LDH release)” value is reported as “significantly attenuated”.
